# The entries are a selection whose mix differs from that of the whole data set. Active and inactive are the calls of the source. Calls follow the shape of the dose curve; as a rule, active = well fitted activation curve with a large enough effect; inconclusive = small, poorly fitted or top-dose-only effect; inactive = no such curve, though single readings can be large or run the other way.
# Chains of the proteins cited; added tags and fusions are not shown. Lines headed by an entry give the natural chain unless they say otherwise; changes in a name come on top.
# UniProt Q8WZA2: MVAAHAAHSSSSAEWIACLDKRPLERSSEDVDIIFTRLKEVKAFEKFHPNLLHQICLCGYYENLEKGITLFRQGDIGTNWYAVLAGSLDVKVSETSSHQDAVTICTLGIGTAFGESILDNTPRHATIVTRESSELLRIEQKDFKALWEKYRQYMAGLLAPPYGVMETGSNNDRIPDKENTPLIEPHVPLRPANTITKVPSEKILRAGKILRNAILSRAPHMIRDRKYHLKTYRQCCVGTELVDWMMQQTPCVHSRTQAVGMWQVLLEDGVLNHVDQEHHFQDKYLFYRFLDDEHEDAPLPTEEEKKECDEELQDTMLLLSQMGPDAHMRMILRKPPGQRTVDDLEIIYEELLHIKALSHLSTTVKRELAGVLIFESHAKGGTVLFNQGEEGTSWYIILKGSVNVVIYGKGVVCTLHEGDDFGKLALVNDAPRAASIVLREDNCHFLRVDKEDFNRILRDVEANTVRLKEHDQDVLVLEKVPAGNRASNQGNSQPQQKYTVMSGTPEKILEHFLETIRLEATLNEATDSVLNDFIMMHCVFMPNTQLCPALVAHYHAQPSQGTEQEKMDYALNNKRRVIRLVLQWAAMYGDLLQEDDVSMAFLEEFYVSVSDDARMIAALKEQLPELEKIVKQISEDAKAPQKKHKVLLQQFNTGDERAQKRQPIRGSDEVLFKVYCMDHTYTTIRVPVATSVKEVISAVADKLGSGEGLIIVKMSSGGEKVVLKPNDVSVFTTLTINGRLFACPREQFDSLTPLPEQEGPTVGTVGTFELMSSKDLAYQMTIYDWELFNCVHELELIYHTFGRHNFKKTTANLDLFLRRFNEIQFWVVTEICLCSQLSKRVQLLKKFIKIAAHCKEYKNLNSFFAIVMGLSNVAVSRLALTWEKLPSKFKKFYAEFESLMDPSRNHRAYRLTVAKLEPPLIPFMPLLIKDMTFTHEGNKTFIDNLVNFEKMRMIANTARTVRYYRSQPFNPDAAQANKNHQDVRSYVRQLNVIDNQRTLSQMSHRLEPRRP
# Target: Rap guanine nucleotide exchange factor 4 (Homo sapiens) (UniProt Q8WZA2)
# Assay: qHTS for Agonist of cAMP-regulated guanine nucleotide exchange factor 4 (EPAC2): primary screen; also: nearly all actives have a fitted effect of over 50% in size
# Conditions: biochemical qHTS, 100% = 6.5 mM cAMP response; at 154 µM (top of the series)
# Summary of the method: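 Setup: EPAC2 100 nM, labeled Rap1B complex 250 nM, free GDP 50 uM. Compound titrations pinned in, brief spin, 5 min room temperature incubation. Kinetic fluorescence read over 30 min, normalized to 6.5 mM cAMP.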
row,Structure (SMILES),activation
1,CC(NC(=O)COC(=O)C(O)(c1ccccc1)c1ccccc1)c1ccccc1 (configuration not stated),inactive: 0.395%
2,O=C(NC1CCS(=O)(=O)C1)NP(=S)(Oc1ccccc1)Oc1ccccc1 (configuration not stated),inactive: 1.11%
3,CCNC(=S)/N=C(\N)N[N+](=O)[O-],inactive: 6.64%
4,Cc1ccc(NP(=O)(Oc2cccc(C)c2)Oc2cccc(C)c2)nc1,inactive: -4.14%
5,c1ccc(-c2nn[nH]n2)c(-c2nn[nH]n2)c1,inactive: 4.98%
6,O=P1(N(CCCl)CCCl)OCCC2CCCCN21 (configuration not stated),inactive: 0.769%
7,O=[N+]([O-])c1ncn(CCn2cnc([N+](=O)[O-])n2)n1,inactive: 1.16%
8,CC(=O)NC(SC(=S)N(C)C)C(Cl)(Cl)Cl (configuration not stated),inactive: 4.84%
9,O=[N+]([O-])c1ccc(O)c(/C=N/Nc2ccc([N+](=O)[O-])cc2[N+](=O)[O-])c1,inactive: 3.5%
10,O=[As](O)(c1ccccc1)c1ccc(O)cc1,inactive: 1.51%
11,Nc1ccc([As](=O)(O)c2ccc([N+](=O)[O-])cc2)cc1,inactive: 4.03%
12,C(Cc1nn[nH]n1)Cc1nn[nH]n1,inactive: 16.2%
13,O=C(OC1CN2CCC1CC2)c1cccc(Cl)c1 (configuration not stated),inactive: -1.84%
14,Nc1ccc(CCCCOc2ccccc2)cc1,inactive: 10.1%
15,COc1ccc(N)c([N+](=O)[O-])c1[N+](=O)[O-],inactive: -1%
16,CN(C)C1(CNC(=O)c2ccc(Cl)c(S(N)(=O)=O)c2)CCCCC1,inactive: 0.216%
17,O=P(Nc1ccccn1)(c1ccc(Br)cc1)c1ccc(Br)cc1,inactive: -3.6%
18,C[C@H]1OP(=O)(Oc2ccccc2)[C@H](O)[C@H](O)[C@H]1N=[N+]=[N-] (some centres not stated),inactive: 4.34%
19,O=P(Nc1nc2ccccc2s1)(c1ccccc1)c1ccccc1,inactive: -6.34%
20,CC(C)C(=O)NC(Sc1ccccc1)C(Cl)(Cl)Cl (configuration not stated),inactive: 4.09%
21,c1nnnn1CCn1cnnn1,inactive: -0.946%
22,COc1ccccc1CNC(=O)COC(=O)C(O)(c1ccccc1)c1ccccc1,inactive: -2.28%
23,CC1(CBr)Cn2c(nc3ccccc3c2=O)S1 (configuration not stated),inactive: -6.22%

row,Structure (SMILES),activation
1,CN(C(=O)Cc1ccc(Cl)c(Cl)c1)[C@@H]1CCCC[C@H]1N1CCCC1,inactive: -3.89%
2,CC(C)/C=N\N=C(\N)N[N+](=O)[O-],inactive: 5.85%
3,CN(CCCl)Cc1cc(Cl)c(NC2=NCCN2)c(Cl)c1,inactive: 8.71%
4,CCOP(=O)(Nc1ccc(C)cn1)OCC,inactive: -1.75%
5,CCOP(=O)(NC(=NC(C)c1ccccc1)NC(C)c1ccccc1)OCC (configuration not stated),inactive: -3.07%
6,CCC1=CC2Cc3nc4ccc(Cl)cc4c(N)c3C(C1)C2 (configuration not stated),inactive: 8.67%
7,O=P1(Nc2ccccn2)COc2ccccc2OC1,inactive: -1.38%
8,CC(C)(C)C(=O)NC(Sc1ncccn1)C(Cl)(Cl)Cl (configuration not stated),inactive: 1.81%
9,Clc1n[nH]nc1-c1nn[nH][15n]1,inactive: -0.297%
10,O=P1(N(CCCl)CCCl)NCCC(C(F)(F)F)O1 (configuration not stated),inactive: 2.98%
11,O=P1(Nc2ncccn2)COc2ccccc2OC1,inactive: -1.24%
12,Cc1ccc(S(=O)(=O)N(CCCN)CCCc2c(C)nc(N)[nH]c2=O)cc1,inactive: 7.37%
13,NS(=O)(=O)c1cccc(NC(=O)COC(=O)C(O)(c2ccccc2)c2ccccc2)c1,inactive: 3%
14,O=P1(Nc2ccc(Br)cn2)COc2ccccc2OC1,inactive: 5.04%
15,O=[As](O)(c1cccs1)c1cccs1,inactive: -4.43%
16,Cc1ccc(OCC(=O)OC2CN3CCC2CC3)cc1 (configuration not stated),inactive: -2.2%
17,Nc1cccc([As](=O)(O)c2ccccc2)c1,inactive: 7.06%
18,Cc1ccc(C(=O)OC2CN3CCC2CC3)cc1 (configuration not stated),inactive: -2.21%
19,CC1CCC(C(C)C)C(OP(=O)(Nc2ccccn2)c2ccccc2)C1 (configuration not stated),inactive: -12.2%
20,Cc1nn(-c2ccccc2)c2c1P(=O)(N1CCOCC1)N(C)C(c1ccccc1)=N2 (configuration not stated),inactive: 6.81%
21,CCCC1OP(=O)(Nc2ccccc2)OCC1CC (configuration not stated),inactive: 6.39%
22,O=C(/C=C/c1ccccc1)OC1CN2CCC1CC2 (configuration not stated),inactive: 3.41%
23,CN(C)C1(CNC(=O)c2ccc(S(C)(=O)=O)cc2)CCCCC1,inactive: 4.12%

row,Structure (SMILES),activation
1,NC(=O)Nc1ccc([As](=O)(O)O)cc1,inactive: 2.53%
2,CN(C(=O)Cc1ccc(Cl)c(Cl)c1)[C@H]1CC[C@@]2(CCCO2)C[C@@H]1N1CCCC1,inactive: -1.48%
3,CN(C)C(=O)c1cc([N+](=O)[O-])cc2c1-c1c(cc([N+](=O)[O-])cc1[N+](=O)[O-])C2=O,inactive: 13%
4,O=[N+]([O-])c1ccc2c(c1)nnn2O,inactive: 4.32%
5,CCOP1(=S)c2c(C)nn(CCC#N)c2N=C(c2ccc(F)cc2)N1C (configuration not stated),inactive: 7.59%
6,CN(C(=O)Cc1ccccc1)[C@@H]1CC[C@]2(CCCO2)C[C@H]1N1CCCC1,inactive: 5.51%
7,N#CCCN(C(=O)COC(=O)C(O)(c1ccccc1)c1ccccc1)c1ccc(F)cc1,inactive: 22%
8,CS(=O)(=O)c1cc([N+](=O)[O-])c2no[n+]([O-])c2c1,inactive: 1.03%
9,O=P(Nc1nccs1)(c1ccccc1)c1nc2ccccc2s1 (configuration not stated),inactive: 7.14%
10,O=P(Nc1nccs1)(Oc1ccccc1)Oc1ccccc1,inactive: 12.7%
11,CCOP1(=S)c2c(C)nn(CCC#N)c2N=C(c2ccccc2F)N1C (configuration not stated),inactive: 0.679%
12,O=C(O)COc1ccc([As](=O)(O)O)cc1[N+](=O)[O-],inactive: 7.37%
13,Nc1ccccc1[As](=O)(O)c1ccccc1,inactive: -0.319%
14,CCCOP(=S)(Nc1nc(N)cc(=O)[nH]1)OCCC,inactive: 3.43%
15,Nc1cccc2c([As](=O)(O)O)cccc12,inactive: 7.26%
16,Cc1ccc(NCCc2c([N+](=O)[O-])cc([N+](=O)[O-])cc2[N+](=O)[O-])cc1,inactive: 1.5%
17,CCOP(=O)(Nc1cccc2ccccc12)OCC,inactive: 9.73%
18,COc1cc(C2NCCC3(OCCO3)C2(C)C)cc(OC)c1OC (configuration not stated),inactive: 3.39%
19,CS(=O)(=O)c1ccc(Cl)c(NC(=O)COC(=O)C(O)(c2ccccc2)c2ccccc2)c1,inactive: 4.02%
20,COc1cc(C(=O)NCC2(N3CCOCC3)CCCCC2)cc(Cl)c1OC(C)C,inactive: 0.639%
21,O=[As](O)(O)c1cccnc1,inactive: 1.7%
22,O=C(OC1CN2CCC1CC2)c1ccc(Cl)cc1 (configuration not stated),inactive: 6.01%
23,O=[As](O)(c1cccc(O)c1)c1cccc(O)c1,inactive: 8.38%

row,Structure (SMILES),activation
1,Cc1cccc(OCC(=O)OC2CN3CCC2CC3)c1 (configuration not stated),inactive: -1.42%
2,COc1ccc(N/C(=N/P(=O)(N2CCOCC2)N2CCOCC2)N2CCOCC2)cc1,inactive: 0.532%
3,O=[N+]([O-])c1cc(Oc2ccc([N+](=O)[O-])cc2C(F)(F)F)cc([N+](=O)[O-])c1,inactive: 5.01%
4,Cc1cc(=O)[nH]c(N[N+](=O)[O-])n1,inactive: 6.3%
5,O=C(OC1CN2CCC1CC2)C12CC3CC(CC(C3)C1)C2 (configuration not stated),inactive: 12.2%
6,Cc1c2c(nc3ccccc13)SC(C(Cl)Cl)C2 (configuration not stated),inactive: 20.1%
7,COc1cc(I)ccc1[As](=O)(O)O,inactive: 3.69%
8,COc1ccc2nc(NP(=O)(c3ccccc3)c3ccccc3)sc2c1,inactive: -5.07%
9,O=P1(N(CCCl)CCCl)OCCCN1CCCl (configuration not stated),inactive: 15.3%
10,O=P1(N(CCCl)CCCl)Nc2ccccc2N1,inactive: 9.55%
11,CC(C)c1ccc(OP(=O)(Nc2ccccn2)Oc2ccccc2F)cc1 (configuration not stated),inactive: 10.1%
12,COC(=O)C1(C)COP(=O)(N2CCCCCC2)OC1 (configuration not stated),inactive: 5.15%
13,ClCCSc1nnc(-c2cccnc2)o1,inactive: 1.79%
14,O=[N+]([O-])c1cc([N+](=O)[O-])c(-c2ccn[nH]2)s1,inactive: 3.59%
15,O=C(OC1CN2CCC1CC2)c1cccc2[nH]cnc12 (configuration not stated),inactive: 6.75%
16,CCN(CC)C(=S)SC(NC=O)C(Cl)(Cl)Cl (configuration not stated),inactive: -10.2%
17,CC(C)NC(=O)NP(=O)(Oc1ccccc1)Oc1ccccc1,inactive: 2.04%
18,COc1cc(C(=O)NCC2(N3CCOCC3)CCCCC2)ccc1OCC(C)C,inactive: 1.28%
19,O=[N+]([O-])c1ccc(-c2cc([N+](=O)[O-])c(O)c([N+](=O)[O-])c2)cc1,inactive: 2.75%
20,O=[As](O)(c1ccc(O)cc1)c1ccccc1O,inactive: -2.85%
21,C[As](=O)(O)c1cccc(C(=O)O)c1,inactive: 8.76%
22,Cc1ccc2nc3c(c(C)c2c1)CC(C(Cl)Cl)S3 (configuration not stated),inactive: 5.09%
23,Cc1ccc(OP(=O)(Nc2ccc([N+](=O)[O-])cn2)Oc2ccc(C)cc2)cc1,inactive: 2.23%

row,Structure (SMILES),activation
1,[N-]=[N+]=NC1CCCCC1NC(=O)c1cc([N+](=O)[O-])cc([N+](=O)[O-])c1 (configuration not stated),inactive: 11.4%
2,CCOC(=O)Nc1cccc([As](=O)(O)O)c1,inactive: 0.448%
3,O=[N+]([O-])c1ccc(Nc2ccc(Oc3ccc([N+](=O)[O-])cc3[N+](=O)[O-])cc2)c([N+](=O)[O-])c1,inactive: 8.85%
4,Cc1cc(SC(NC=O)C(Cl)(Cl)Cl)ncn1 (configuration not stated),inactive: -5.39%
5,O=P(Nc1ccccn1)(c1cccc2ccccc12)c1cccc2ccccc12,inactive: 7.34%
6,CC1CCNP(=O)(N(CCCl)CCCl)O1 (configuration not stated),inactive: 5.95%
7,O=C(O)C(O)c1ccc(N(CCCl)CCCl)cc1 (configuration not stated),inactive: 5.13%
8,CCOC(=O)Nc1ccc([As](=O)(O)O)c(O)c1,inactive: 1.55%
9,Cc1cc(SC(NC(=O)c2ccccc2)C(Cl)(Cl)Cl)nc(C(C)C)n1 (configuration not stated),inactive: 3.74%
10,CCCCOc1ccc(C(=O)NCC2(N3CCCCC3)CCCCC2)cc1OC,inactive: 4.02%
11,COP(=O)(OC)N1CC1c1ccccc1 (configuration not stated),inactive: 10%
12,CCOC(=O)c1ccc(NC(=O)C(C)(CCl)SC)cc1 (configuration not stated),inactive: 12.5%
13,CSc1ccc(Nc2c([N+](=O)[O-])cc([N+](=O)[O-])cc2[N+](=O)[O-])cc1,inactive: 10.7%
14,O=C(OC1CN2CCC1CC2)c1cccc([N+](=O)[O-])c1 (configuration not stated),inactive: 9.31%
15,CCC(C)N(CC(C)C)C(=S)SC(NC(C)=O)C(Cl)(Cl)Cl (configuration not stated),inactive: 11.4%
16,COC(=O)C1(C)COP(=O)(N2CCCC2)OC1 (configuration not stated),inactive: 1.79%
17,COP1(=S)c2c(C)nn(CCC#N)c2N=C(c2ccc(F)cc2)N1C (configuration not stated),inactive: 12.4%
18,O=C(Nc1ccncc1[N+](=O)[O-])c1ccc([N+](=O)[O-])cc1[N+](=O)[O-],inactive: 6.92%
19,O=C(COc1ccccc1)OC1CN2CCC1CC2 (configuration not stated),inactive: 2.48%
20,O=C(O)C(=O)c1ccc(N(CCCl)CCCl)cc1,inactive: 10.7%
